Measured values: patent publication US4873249A, “Pharmaceutical composition” (EGIS Gyogyszergyar, priority 1986, dated 1989)

How the values were obtained:
in vivo [1] = details: mouse, po, mice, LD50/writhing ID50, read-out: TI (therapeutic index)
Procedure: Between the 5th and 10th minute after the administration of acetic acid total number of the typical writhing reactions was counted, and expressed as percentage of the control. The experiments were performed in groups of at least 12 mice; measurements were done 60 min. after oral application of the test compounds.

[2] = Writhing test in rats (acetic acid); details: rat, in vivo, po
Procedure: Five minutes after treatment with acetic acid, total number of characteristic writhing reactions was counted for 10 minutes and expressed as percentage of the control group.

in vivo [3] = details: po
Procedure: The observation period after treatment lasted for 14 days.
Statistical evaluation was carried out as described by Litchfield-Wilcoxon's method.

gastric mucosa of rats = experiment: Measurement of ulcerogenic activity; format: in vivo

Structure (SMILES): COc1ccc(Cc2cnc(N)nc2N)cc1OC [Compound A, 2,4-diamino-5-(3,4-dimethoxybenzyl)-pyrimidine]
- selectivity ratio (in vivo [1]): 42.7
- selectivity ratio [2]: 102
- LD50 at 336 h (in vivo [3]; mouse): 6030 mg/kg
- LD50 at 336 h (in vivo [3]; rat): 3680 mg/kg
- Ulcus-index (gastric mucosa of rats; 250 mg/kg orally 6 and 16 h before decapitation): 0.5
- Ulcus-index (gastric mucosa of rats; 500 mg/kg orally 6 and 16 h before decapitation): 0.2
- Ulcus-index (gastric mucosa of rats; 1000 mg/kg orally 6 and 16 h before decapitation): 0
- Effect on ulcus-index (in words) (gastric mucosa of rats; oral, over the doses of Table 4): induces only small alteration even in high doses
